Measurements as given in patent US20110039779A1, “IGF-1R BINDING PROTEINS AND ANTAGONISTS” (priority 2007, published 2011).
Entries after “also recorded” stand apart in the source; their conditions may differ. Read-outs that look alike come from different tables or passages of the source.

Amino acid sequences for entries named in this document (tags omitted). Residues count along the entry.
UniProt P08069, 31-736: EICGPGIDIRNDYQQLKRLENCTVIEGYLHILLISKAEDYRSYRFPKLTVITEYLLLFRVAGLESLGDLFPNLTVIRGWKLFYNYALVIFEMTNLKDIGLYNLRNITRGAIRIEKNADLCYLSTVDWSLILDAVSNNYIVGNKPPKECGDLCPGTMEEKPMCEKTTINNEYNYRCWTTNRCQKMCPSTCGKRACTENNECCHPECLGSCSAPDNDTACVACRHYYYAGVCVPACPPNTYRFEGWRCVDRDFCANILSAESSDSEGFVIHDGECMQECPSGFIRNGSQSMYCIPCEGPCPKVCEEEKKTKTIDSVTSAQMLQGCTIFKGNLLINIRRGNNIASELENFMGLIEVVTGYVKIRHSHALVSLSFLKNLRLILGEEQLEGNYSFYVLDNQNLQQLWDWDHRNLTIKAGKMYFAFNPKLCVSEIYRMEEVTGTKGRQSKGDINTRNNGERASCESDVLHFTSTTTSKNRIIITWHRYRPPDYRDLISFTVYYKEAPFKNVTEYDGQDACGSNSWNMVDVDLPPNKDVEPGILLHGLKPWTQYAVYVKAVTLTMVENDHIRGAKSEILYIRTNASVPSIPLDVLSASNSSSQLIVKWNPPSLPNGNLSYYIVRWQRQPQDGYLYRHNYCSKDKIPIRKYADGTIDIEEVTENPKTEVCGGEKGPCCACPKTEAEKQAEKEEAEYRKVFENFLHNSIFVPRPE
UniProt P08069, 741-1367 limits assumed: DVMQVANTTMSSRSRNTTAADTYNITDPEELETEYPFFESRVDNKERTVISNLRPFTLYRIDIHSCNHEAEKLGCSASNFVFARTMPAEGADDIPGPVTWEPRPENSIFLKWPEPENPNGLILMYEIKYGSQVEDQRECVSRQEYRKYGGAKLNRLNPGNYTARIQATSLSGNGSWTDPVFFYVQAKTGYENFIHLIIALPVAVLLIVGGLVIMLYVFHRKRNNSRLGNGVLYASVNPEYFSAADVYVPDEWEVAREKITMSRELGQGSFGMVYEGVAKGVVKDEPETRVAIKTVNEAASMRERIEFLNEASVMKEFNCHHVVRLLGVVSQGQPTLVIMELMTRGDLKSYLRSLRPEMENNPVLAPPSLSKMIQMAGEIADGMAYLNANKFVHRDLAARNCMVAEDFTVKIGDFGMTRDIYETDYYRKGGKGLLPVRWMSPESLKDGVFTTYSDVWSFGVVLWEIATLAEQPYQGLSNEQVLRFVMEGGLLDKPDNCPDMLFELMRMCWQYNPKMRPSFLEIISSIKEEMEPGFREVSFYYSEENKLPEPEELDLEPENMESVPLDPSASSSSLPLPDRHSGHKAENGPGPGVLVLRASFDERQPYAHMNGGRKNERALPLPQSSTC
UniProt P08069, 741-935 limits assumed: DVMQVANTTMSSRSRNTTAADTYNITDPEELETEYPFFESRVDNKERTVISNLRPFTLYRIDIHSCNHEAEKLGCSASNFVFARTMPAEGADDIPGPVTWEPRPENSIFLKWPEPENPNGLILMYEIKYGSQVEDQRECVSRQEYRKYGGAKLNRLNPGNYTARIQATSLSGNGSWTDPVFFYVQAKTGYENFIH

How the values were obtained:
MCF7 cells = MCF7 cells (Homo sapiens, UniProt P08069); format: cell-based
Experimental: Additional binding and antagonism assays using candidate peptides were performed. […] Cell viability was determined by luminescence assay and IC50 was calculated using standard techniques.

MCF-7S8 cells = MCF-7S8 cells (Homo sapiens, UniProt P08069); assay: cell growth/density, mitochondrial activity assay (WST-1), MCF-7S8; format: cell-based; conditions: for IC50 in MCF-7S8: in presence of IGF-1: first value of the cell, 10 nM IGF-1, cells in words only = effect as reported, 72 hours, no unit in head (SW480 column: M); for IC50 in MCF-7S8: alone: second value of the cell, basal level in 0.5% FCS, unit not given
Experimental: For cell growth/density studies, a mitochondrial activity assay was used, as exemplified by the following. Cells (SW480, MCF-7S8) were propagated in complete medium (DME: F12, 10% FCS (SW 480) or 5% FCS (MCF-7S8, P/S)), trypsinized, and seeded in 96 well plates as 10,000 cells/well in medium with 0.5% FCS. All wells in the periphery were omitted and only filled with medium. […] All treatments are made in triplicates. […] Treatment was continued for 48 hours (SW480 cells) or 72 hours (MCF-7S8 cells) before quantification of the cell density. Media was exchanged each day. Media and peptides were diluted in DMSO. When measuring cell density, the volume of each well was adjusted to […] Pre-diluted WST-1 (1 ml+1.5 ml DME:F12) was added as 25 μL to each well including background samples. Three wells with media only served as background controls. The cells were incubated for 90 min protected against light in an incubator.

HIGF-1R = molecular target: T1, HIGF-1R (Homo sapiens, UniProt P08069); assay: IGF-1R affinity, scintillation proximity assay (SPA assay), 125I-IGF1 displacement; format: binding
T1 construct: HIGF-1R was purified from a cell culture of BHK cells stably transfected with IGF-1R cDNA; made in house; host or cells: BHK cells stably transfected with IGF-1R cDNA
Experimental: In certain cases, a scintillation proximity assay (SPA assay) was used to determine IGF-1R affinity. Briefly, anti-mouse SPA beads were mixed with an HIGF-1R antibody (24-31) and WGA-purified HIGF-1R from transfected cells. The binding buffer was 0.1 M Hepes, pH 7.8, 0.1 M NaCl, 10 mM MgCl2, 0.025% Tween-20, 0.5% BSA. To this mixture was added ^125I-IGF1 and a dilution series of IGF1 or the peptide to be determined.

[1] = molecular target: T2, His-tagged soluble recombinant human IGF-IR (srhIGF-1R-his) (Homo sapiens, UniProt P08069); assay: ALPHAScreen competition binding assay, biotinylated hIGF-1
T2 construct: The extra-cellular domain of IGF-1R was obtained as a recombinant protein from R&D Systems; purchased R&D Systems, Inc., Minneapolis, Minn
Experimental: Binding Assays. […] Detection of the receptor ligand interaction was measured in an amplified luminescent proximity homogeneous assay (ALPHAScreen; BioSignal-Packard, Montreal). The assay was performed in 384-well Nunc™ white polystyrene microplates (Nalge Nunc International, Naperville, Ill.) with a final volume of 40 μL. […] Each concentration of competitor was assayed in duplicate. Non-specific binding was determined in the presence of 3×10^−5 M hIGF-1. The second step of the assay was to add acceptor beads and the incubation continued for 0.5 hr. The final step was to add donor beads and the incubation continued for an additional 1 hr. […] Primary data were background corrected, normalized to buffer controls and then expressed as % Specific Binding. The data were fit to a four-parameter non-linear regression analysis (y=min+(max-min)/(1+10̂((log IC50-x)*Hillslope))), which was used to determine IC50 values. The Z′-factor for this assay is greater than 0.7 (Z′=1-(3σ++3σ−)/|μ+−μ−|) and the signal-to-background (SB) ratio was between 40 and 70.

Human IGF-1R (HIGF-1R) = molecular target: T3, Human IGF-1R (HIGF-1R) (Homo sapiens, UniProt P08069); assay: IGF-1R affinity study, 125I-IGF-1 competition, PEG precipitation (PEG-assay); format: binding; conditions: read-out: HIGFIR affinity (PEG-assay)
T3 construct: HIGF-1R was purified from a cell culture of BHK cells stably transfected with IGF-1R cDNA; made in house; host or cells: BHK cells stably transfected with IGF-1R cDNA
Experimental: IGF-1R affinity studies were generally performed as follows. […] HIGF-1R was purified from a cell culture of BHK cells stably transfected with IGF-1R cDNA. The day before harvest cells were moved to serum free conditions and before harvest the cells were rinsed with and ice cold PBS solution. The cells were solubilized in cold lysis buffer (4 ml lysis buffer/1×10^8 cells); vortexed vigorously to lysis in lysis buffer (50 mM Hepes (pH 8.0); 150 mM NaCl; 1% Triton X-100; 2 mM EDTA; 10 μg/mlaprotinin; 0.5 mM PEFABLOC (Roche)); and the lysate centrifuged at 4° C., 20000 rpm, for 15 minutes. The HIGF-1R portion was absorbed to WGA-agarose beads and subjected to chromatography purification (Pharmacia biotech No 17-0760-01) (column washed with 20× column volumes wash buffer −50 mM Hepes (pH 8.0); 150 mM NaCl; 0.1% Triton X-100; 0.5 mM PEFABLOC (Roche)). The HIGF-1R portion was then eluted with 0.5 M n-Acetyl Glycosamine (NAG), 10% Glycerol in elution buffer (50 mM Hepes (pH 8.0); 150 mM NaCl; 0.1% Triton X-100; 0.5 mM PEFABLOC (Roche); 0.5 M n-acetyl glucosamine; 10% glycerol). […] After equilibration for 2 days at 4° C., each sample (200 μl) typically was precipitated by addition of 400 μl 25% PEG 6000, centrifuged, washed with 1 ml 15% PEG 6000, and counted in a gamma-counter. In some cases, human insulin receptor (HIR) affinity for select test peptides was similarly measured.

[2] = read-out: HIGFIR Affinity (SPA-assay); IC50 for binding used as a measure of Kd
[3] = read-out: IG-1 Displacement Binding Affinity IC50 = M; Table 12
[4] = read-out: AlphaScreen Binding Affinity IC50 = M, Table 12

Substance	Kd (HIGF-1R; [2]) [µM]	Kd (Human IGF-1R (HIGF-1R)) [µM]	further results
SFYSCLESLVNGPAEKSRGQWDGCRK [Peptide F250]	–	–	Cell (nM) (MCF7 cells; Table 11): 5-10,000 nM; IC50 in MCF-7S8: in presence of IGF-1 (MCF-7S8 cells): agonistic; IC50 in MCF-7S8: alone (MCF-7S8 cells): no effect
QPLRDLWSYFVGTVEGGLRGA [Peptide F427]	> 20	–	–
Ac-VEGROLFYDLLROLLAMRRNG [Peptide F235]	–	–	IC50 in MCF-7S8: in presence of IGF-1 (MCF-7S8 cells): No effect; IC50 in MCF-7S8: alone (MCF-7S8 cells): no effect
ENRSGELWEGYGWFNMQVRGE [Peptide F212]	–	–	IC50 in MCF-7S8: in presence of IGF-1 (MCF-7S8 cells): No effect
SFYSCLESLVTGPAEKSRGQWEGCRK [Peptide F292]	–	–	IC50 in MCF-7S8: in presence of IGF-1 (MCF-7S8 cells): No effect; IC50 in MCF-7S8: alone (MCF-7S8 cells): no effect
TLNPRGPWEGSRGSMDDSFYRWFERQLE [Peptide F272]	1.5	–	IC50 (HIGF-1R; [3]): 1.5 µM
pyro-QFLRFLWSYFVGTVEGGLRGA [Peptide F445]	> 20	–	–
Ac-VGRASGPPENFYDWPGRQLSLQSGEQRR [Peptide F287]	7.6	–	IC50 [1, 4]: 8400 nM; IC50 (HIGF-1R; [3]): 7.6 µM
KLHNLMFYYGLQRLVWGAGLG [Peptide F159]	–	5	–
EVTSAGQWEGYEWFLGALHAE [Peptide F210]	–	> 20	–
GVDEVRAWLWCQISGLGCES [Peptide F114]	0.071	0.056	–
EEFFQNWEGYNWFNEQLGKEGRVDDAFYEWFERQLGE [Peptide F413]	0.36	–	–
ETGRECWGRPCGEADSFYDWFVQQGSE [Peptide F267]	–	–	Antagonism MCF7 Cells IC50 = M (MCF7 cells; Table 12): agonist
AWRYPEDDLEFWLARGRGYG [Peptide F435]	13	–	–
GEHPCQLLISLCGDDCDPVNCGGGS [Peptide F436]	–	–	Kd (HIGF-1R; IC50 for binding used as a measure of Kd; read-out: HIGFIR Affinity (SPA-assay)): 22 µM
CWARPCGDAANFYDWFVQQAS [Peptide F103]	–	2.3	–
RGNVGGGSLDESFYEWFERQLGR [Peptide F271]	1.7	–	IC50 [1, 4]: 5600 nM; IC50 (HIGF-1R; [3]): 1.7 µM
EEDDQNWEGYNWFNEQLGK [Peptide F261]	2.4	0.71	–
EYRQECACSVGAVGFLCGLACLARSGE [Peptide F206]	–	16	–
DMGDVECEDPFYDWFACQVRDTEFDE [Peptide F115]	–	15	–
SAAQLFFQESFYDWFLRQVAESSQPN [Peptide F162]	–	2.1	–
PHWTSIRFWRFGPEPRWSGT [Peptide F443]	> 20	–	–
EERATPRWRGYEWFDAQVERE [Peptide F211]	–	–	IC50 in MCF-7S8: in presence of IGF-1 (MCF-7S8 cells): No effect
DDDKGSLDESFYDWFERQLGTFYSCLASLLTGTPQPNRGPWERCR [Peptide F110]	–	1	–
QFYGCLLDLSLGVPSFGWRRRCITA [Peptide F138]	–	–	IC50 in MCF-7S8: alone (MCF-7S8 cells): no effect

Substance	Kd (HIGF-1R; [2]) [µM]	Kd (Human IGF-1R (HIGF-1R)) [µM]	further results
EGSLDESFYDWFERQLG-POX2-GYSWLRDVLMEKQAQLKREGSVGRQE [Peptide F255]	13	–	IC50 [1, 4]: 1600 nM; IC50 (MCF7 cells; read-out: Antagonism MCF7 Cells IC50 = M, Table 12): 18 µM; IC50 (HIGF-1R; [3]): 13 µM
GSLDESFYDWFERQLGADTKSPRWGSGTREHQGARGGAPGR [Peptide F285]	1.7	–	–
GSLDESFYDWFERQLGAVVGRDGGPITRDVGGDGRRGYNV [Peptide F286]	2.3	–	–
GSGGYASRDESFYEWFERQLA [Peptide F276]	1.6	–	IC50 [1, 4]: 5100 nM; IC50 (HIGF-1R; [3]): 1.6 µM
EISFRCQLFVLAGMHPCPVDVGGEGFE [Peptide F170]	–	–	IC50 in MCF-7S8: alone (MCF-7S8 cells): no effect
WLDQERAWLWCEISGRGCLS [Peptide F104]	> 20	> 20	–
GWRYGSFFRWRFEEGTPPFH [Peptide F432]	> 20	–	–
Ac-ESDVWAQPQRRNDWPGYHWLSR [Peptide F288]	> 20	–	IC50 [1, 4]: 320 nM; IC50 (HIGF-1R; [3]): > 20 µM
SQVQWRFFTPGFGAGLFRVT [Peptide F442]	> 20	–	–
EGRVDDAFYEWFERQLGEEEDDQNWEGYNWFNEQLGX [Peptide F411]	0.29	–	–
SFYSCLESLVNGGAERSEGOWEGCR [Peptide F113]	0.84	0.56	IC50 ([1]; read-out: Binding (nM) AlphaScreen, Table 11): 560 nM; IC50 (MCF7 cells; read-out: Cell, Table 11): 1 µM
GRVDWLQRNANFYDWFVAELG [Peptide F426]	> 20	–	–
TFYSGPVSLLTGTPRTNRSAWERGRGSLDDSFYDWFERQLSR [Peptide F274]	1.4	–	IC50 (HIGF-1R; [3]): 1.4 µM
ESYGDCRDRPCGDAPNFYDWFVQQASE [Peptide F270]	–	–	IC50 in MCF-7S8: in presence of IGF-1 (MCF-7S8 cells): Agonistic; also recorded: No effect
EFSGFCMGLERLSOVSLGYCGAGOGGE [Peptide F169]	–	–	IC50 in MCF-7S8: alone (MCF-7S8 cells): no effect
EDWLRCLGVILSGGLTELANTGCVQGE [Peptide F167]	–	–	IC50 in MCF-7S8: in presence of IGF-1 (MCF-7S8 cells): Agonistic
EDDDQNWEGYEWFERQLGK [Peptide F262]	2.3	0.75	–
WLDQERAWLWCEISGRGCLSDDDKGSLDESFYDWFERQLG [Peptide F107]	–	1.4	–
EFLTRLLERLGLSWERGEAGGPYAQAE [Peptide F175]	–	13	–
ELQGFCELLATVTGVTGLGCLDYQPIE [Peptide F202]	–	–	IC50 in MCF-7S8: in presence of IGF-1 (MCF-7S8 cells): antagonistic; also recorded: no effect
VEGRGLFYDLLRQLLARRQNG [Peptide F158]	–	0.9	–
ERDDQDWEGYEWFEEQVGK [Peptide F260]	–	1.8	–
GYSWLRDVLMEKQAQLKREGSVGRQK [Peptide F337]	> 20	–	–
VGRASGFPENFYDWFGRQLSLQSGEQ [Peptide F160]	–	6.7	–
